Among all 390,000 compounds or so, about 760 (0.19%) were called active. The source calls these results inconclusive, neither active nor inactive. Calls follow the shape of the dose curve; as a rule, active = well fitted inhibition curve with a large enough effect; inconclusive = small, poorly fitted or top-dose-only effect; inactive = flat fitted curve, though single readings scatter.
assay: qHTS for Inhibitors of Vif-A3F Interactions: qHTS; conditions: HeLa A3F-eYFP + Vif (tagged APOBEC3F with the HIV-1 protein that degrades it), YFP fluorescence increase; also: nearly all actives have a fitted effect of over 65% in size
Description: The recent discovery and characterization of host restriction factors, which provide a potent defense to invading retroviruses, has provided new targets for antiviral drug development. APOBEC3G (A3G) and APOBEC3F (A3F) are potent cytidine deaminases that block HIV-1 replication; HIV-1 expresses the Vif protein, which counteracts A3G and A3F by binding to them and inducing their proteasomal degradation. The Vif-A3G and Vif-A3F interactions provide two potential targets for development of small molecules which can interfere with the ability of Vif to degrade A3G or A3F. […] To identify inhibitors that can interfere with Vif mediated degradation of A3G and A3F, we have developed Hela cell lines that stably express A3G or A3F tagged with eYFP at the C-terminal end (A3G-eYFP or A3F-eYFP, respectively) and Vif. In the absence of an inhibitor, Vif induces degradation of A3G-eYFP and A3F-eYFP, and the cells are not fluorescent. In the presence of an inhibitor, it is expected that Vif will be unable to degrade A3G-eYFP and/or A3F-eYFP, resulting in an increase in yellow fluorescence. In this assays Vif A3F was screened against the Molecular Library Small Molecule Repository (MLSMR). NIH Chemical Genomics Center [NCGC] NIH Molecular Libraries Probe Centers Network [MLPCN] MLPCN Grant: MH093245 Assay Submitter (PI): Vinay Pathak, National Cancer Institute
5 uL of 700 cells/well of A3F-YFP cells are dispensed into black, clear bottom plates. The plates are incubated overnight at 37 deg C. 23 nL of compounds are added by pintool. The plates are incubated overnight at 37 deg C and then read on the TTP Acumen (Ex 488/ Em 500-530).
Potency is read from the fitted curve at half-maximal effect.

Q: For `CSc1ccc(Nc2c([N+](=O)[O-])cc([N+](=O)[O-])cc2[N+](=O)[O-])cc1`, which Potency is on record?
A: Its Potency is inconclusive: 5.62 µM.

Q: Which Potency does the source give for `CS(=O)(=O)c1cc([N+](=O)[O-])c2no[n+]([O-])c2c1` here?
A: Its Potency is inconclusive: 22.4 µM.

Q: For `O=[N+]([O-])c1cc([N+](=O)[O-])c(CCNc2ccccc2)c([N+](=O)[O-])c1`, which Potency is on record?
A: Its Potency is inconclusive: 6.31 µM.
